According to patent publication EP4831178A1, “ARYL HETEROCYCLIC KV1.3 INHIBITOR, AND PREPARATION METHOD THEREFOR AND USE THEREOF” (dated 2026):
pIC50: −log10 of the molar value.

The chains behind the UniProt entries cited, without tags or fusion partners.
UniProt P22001, whole entry: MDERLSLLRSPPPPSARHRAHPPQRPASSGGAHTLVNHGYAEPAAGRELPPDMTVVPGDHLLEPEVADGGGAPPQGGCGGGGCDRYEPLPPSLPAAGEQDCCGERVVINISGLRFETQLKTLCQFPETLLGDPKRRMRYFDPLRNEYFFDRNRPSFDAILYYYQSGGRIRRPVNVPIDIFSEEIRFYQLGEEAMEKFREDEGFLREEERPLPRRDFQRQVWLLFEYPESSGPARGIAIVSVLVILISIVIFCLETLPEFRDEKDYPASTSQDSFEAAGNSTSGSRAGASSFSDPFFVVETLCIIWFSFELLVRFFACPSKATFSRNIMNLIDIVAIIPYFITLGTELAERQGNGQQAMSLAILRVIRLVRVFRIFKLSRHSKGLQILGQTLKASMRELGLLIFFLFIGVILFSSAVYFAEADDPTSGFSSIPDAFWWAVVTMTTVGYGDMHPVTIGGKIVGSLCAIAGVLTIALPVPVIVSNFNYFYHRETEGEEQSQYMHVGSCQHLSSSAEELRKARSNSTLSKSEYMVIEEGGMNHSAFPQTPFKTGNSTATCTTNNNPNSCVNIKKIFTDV
UniProt P22460, whole entry: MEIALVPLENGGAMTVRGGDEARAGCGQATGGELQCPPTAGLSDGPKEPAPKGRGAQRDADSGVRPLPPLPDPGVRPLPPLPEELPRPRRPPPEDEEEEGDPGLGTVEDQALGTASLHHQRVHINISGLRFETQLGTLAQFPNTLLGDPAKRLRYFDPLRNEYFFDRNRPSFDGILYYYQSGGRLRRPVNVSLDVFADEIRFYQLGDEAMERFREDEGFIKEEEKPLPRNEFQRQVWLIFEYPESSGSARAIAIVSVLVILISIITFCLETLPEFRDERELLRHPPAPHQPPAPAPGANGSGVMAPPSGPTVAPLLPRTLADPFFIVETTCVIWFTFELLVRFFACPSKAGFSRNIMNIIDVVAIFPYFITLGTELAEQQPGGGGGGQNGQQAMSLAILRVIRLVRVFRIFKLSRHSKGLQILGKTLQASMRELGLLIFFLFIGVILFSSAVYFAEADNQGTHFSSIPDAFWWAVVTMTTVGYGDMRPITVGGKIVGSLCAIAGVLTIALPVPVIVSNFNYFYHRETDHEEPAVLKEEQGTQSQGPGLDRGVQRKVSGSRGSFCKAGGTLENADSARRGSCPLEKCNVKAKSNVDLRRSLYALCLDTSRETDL
UniProt Q09470, whole entry: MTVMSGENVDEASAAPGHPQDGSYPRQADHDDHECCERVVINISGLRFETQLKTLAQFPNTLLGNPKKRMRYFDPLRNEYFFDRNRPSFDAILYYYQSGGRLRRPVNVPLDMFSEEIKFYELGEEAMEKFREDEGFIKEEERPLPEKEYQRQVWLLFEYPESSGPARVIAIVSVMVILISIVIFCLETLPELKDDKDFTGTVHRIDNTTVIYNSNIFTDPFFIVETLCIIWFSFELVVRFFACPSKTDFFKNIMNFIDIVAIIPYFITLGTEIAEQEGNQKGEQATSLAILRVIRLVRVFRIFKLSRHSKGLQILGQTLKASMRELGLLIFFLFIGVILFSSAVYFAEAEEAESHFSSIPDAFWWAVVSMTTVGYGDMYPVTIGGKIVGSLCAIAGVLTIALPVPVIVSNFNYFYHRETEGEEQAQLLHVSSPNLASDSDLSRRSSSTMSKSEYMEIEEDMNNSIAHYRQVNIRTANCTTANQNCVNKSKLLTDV
UniProt P16389, whole entry: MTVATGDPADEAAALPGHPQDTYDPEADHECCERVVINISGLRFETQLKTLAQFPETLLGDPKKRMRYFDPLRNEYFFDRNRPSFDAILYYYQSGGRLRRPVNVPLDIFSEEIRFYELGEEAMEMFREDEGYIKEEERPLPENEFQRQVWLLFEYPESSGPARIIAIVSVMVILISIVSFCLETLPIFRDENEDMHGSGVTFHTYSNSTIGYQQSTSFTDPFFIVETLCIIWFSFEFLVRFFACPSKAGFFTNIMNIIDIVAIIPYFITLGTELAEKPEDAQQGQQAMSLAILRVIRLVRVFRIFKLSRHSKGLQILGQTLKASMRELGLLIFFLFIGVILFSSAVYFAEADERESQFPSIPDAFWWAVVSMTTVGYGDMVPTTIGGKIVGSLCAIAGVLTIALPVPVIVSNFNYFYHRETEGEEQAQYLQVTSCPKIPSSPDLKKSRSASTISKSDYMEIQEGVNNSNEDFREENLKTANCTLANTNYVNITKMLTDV
UniProt Q12809, whole entry: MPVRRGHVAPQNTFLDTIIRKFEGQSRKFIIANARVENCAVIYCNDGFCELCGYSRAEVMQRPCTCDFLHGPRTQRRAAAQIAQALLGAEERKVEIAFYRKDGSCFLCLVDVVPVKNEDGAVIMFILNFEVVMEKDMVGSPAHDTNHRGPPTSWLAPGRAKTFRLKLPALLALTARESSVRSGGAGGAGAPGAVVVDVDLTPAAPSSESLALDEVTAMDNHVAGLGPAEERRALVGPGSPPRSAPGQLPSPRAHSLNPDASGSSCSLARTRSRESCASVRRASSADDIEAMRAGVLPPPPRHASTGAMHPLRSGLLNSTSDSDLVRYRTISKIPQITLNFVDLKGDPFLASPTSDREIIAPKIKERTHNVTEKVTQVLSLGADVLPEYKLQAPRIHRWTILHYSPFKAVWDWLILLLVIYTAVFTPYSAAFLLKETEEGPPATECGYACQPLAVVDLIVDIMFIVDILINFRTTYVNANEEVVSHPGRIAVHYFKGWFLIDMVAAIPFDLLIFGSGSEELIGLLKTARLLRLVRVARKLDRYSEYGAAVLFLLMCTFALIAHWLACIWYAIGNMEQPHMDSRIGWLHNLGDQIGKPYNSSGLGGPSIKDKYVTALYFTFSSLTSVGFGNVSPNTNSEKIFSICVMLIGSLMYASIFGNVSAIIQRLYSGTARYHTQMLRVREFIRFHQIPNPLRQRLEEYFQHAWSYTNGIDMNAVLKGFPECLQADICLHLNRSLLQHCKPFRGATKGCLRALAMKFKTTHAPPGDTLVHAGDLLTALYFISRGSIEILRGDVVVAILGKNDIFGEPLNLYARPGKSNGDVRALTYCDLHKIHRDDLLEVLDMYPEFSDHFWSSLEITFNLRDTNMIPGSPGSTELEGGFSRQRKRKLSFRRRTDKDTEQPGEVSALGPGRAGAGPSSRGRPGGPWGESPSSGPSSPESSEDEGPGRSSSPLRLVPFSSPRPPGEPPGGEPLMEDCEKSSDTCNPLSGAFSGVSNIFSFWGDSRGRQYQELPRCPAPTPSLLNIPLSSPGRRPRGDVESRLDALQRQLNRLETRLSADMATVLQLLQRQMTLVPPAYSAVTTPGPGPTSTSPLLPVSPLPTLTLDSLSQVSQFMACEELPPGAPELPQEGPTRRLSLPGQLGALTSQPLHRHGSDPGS
UniProt P22459, whole entry: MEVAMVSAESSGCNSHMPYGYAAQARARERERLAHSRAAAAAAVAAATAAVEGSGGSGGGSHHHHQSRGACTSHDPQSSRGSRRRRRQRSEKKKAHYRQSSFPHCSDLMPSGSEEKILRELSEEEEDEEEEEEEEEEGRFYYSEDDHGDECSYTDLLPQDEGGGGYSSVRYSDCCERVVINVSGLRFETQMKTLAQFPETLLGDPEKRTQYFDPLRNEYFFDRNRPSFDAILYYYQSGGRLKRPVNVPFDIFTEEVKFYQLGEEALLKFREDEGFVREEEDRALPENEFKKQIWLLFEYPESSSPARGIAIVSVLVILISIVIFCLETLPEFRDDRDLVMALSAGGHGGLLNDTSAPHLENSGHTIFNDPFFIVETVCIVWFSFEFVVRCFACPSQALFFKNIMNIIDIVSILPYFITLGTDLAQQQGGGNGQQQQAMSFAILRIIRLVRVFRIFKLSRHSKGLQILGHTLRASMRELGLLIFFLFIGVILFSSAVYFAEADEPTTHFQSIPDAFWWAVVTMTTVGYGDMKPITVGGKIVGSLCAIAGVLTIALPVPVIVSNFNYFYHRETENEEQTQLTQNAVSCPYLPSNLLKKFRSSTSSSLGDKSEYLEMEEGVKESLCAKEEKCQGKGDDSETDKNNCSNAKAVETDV

How the values were obtained:
Kv1.3 = Kv1.3 (Homo sapiens, UniProt P22001); experiment: Assay for inhibitory activity against Kv1.X, whole-cell patch-clamp (peak current); details: read-out: IC50 Kv1.3, HEK293 cells stably expressing Kv1.3, room temperature
Experimental: (§1) HEK293 cells stably expressing Kv1.X (Kv1.1, Kv1.2, Kv1.3, Kv1.4, Kv1.5) potassium channels were cultured in a DMEM medium containing 10% fetal bovine serum and 800 µg/mL G418 (geneticin) at a culture temperature of 37 °C and a carbon dioxide concentration of 5%.
(§2) The extracellular solution contained 40 mM NaCl, 3.5 mM KCl, 1 mM MgCl2•6H2O, 2 mM CaCl2•2H2O, 10 mM D-glucose, 10 mM HEPES, 1.25 mM NaH2PO4•2H2O, and the pH was adjusted to 7.4 with NaOH. The intracellular solution contained 20 mM KCl, 115 mM K-Aspartic, 1 mM MgCl2•6H2O, 5 mM EGTA, 10 mM HEPES, 2 mM Na2-ATP, and the pH was adjusted to 7.2 with KOH.
(§3) The voltage stimulation protocol for recording whole-cell Kv1.X potassium currents via patch-clamp is as follows: After formation of a whole-cell seal, the cell membrane voltage was clamped at -80 mV, and then stepped to +40 mV for 500 ms. Data were acquired repeatedly every 30 s and the effect of the drug on Kv1.X current was observed. The test data were acquired by the EPC-10 amplifier (HEKA) and stored in the PatchMaster (HEKA) software.
(§4) Recording electrodes were drawn from capillary glass tubes using a microelectrode puller. Under an inverted microscope, the recording electrode was brought into contact with the cell surface by manipulating a microelectrode manipulator. Negative-pressure suction was applied to form a GΩ seal. After formation of the GΩ seal, a rapid capacitance compensation was given. The application of negative pressure was continued to rupture the cell membrane, forming a whole-cell recording mode. Then, a slow capacitance compensation was given, and the membrane capacitance and series resistance were recorded. No current leakage compensation was provided.
(§5) Once the whole-cell recorded Kv1.X current stabilized, drug administration was started. Each drug concentration was allowed to act for 5 min (or until the current reached a steady state) before the next concentration was tested. Multiple concentrations were tested for each test compound. The cover glass plated with the cells was placed in a recording chamber of the inverted microscope. The test compound and the compound-free extracellular solution sequentially flowed through the recording chamber from low concentrations to high concentrations using a gravity perfusion method to act on the cells, and liquid exchange was performed using a vacuum pump during recording. For each cell, the current detected in the compound-free extracellular solution was used as its own control group. The test was independently repeated three times using at least three cells per concentration. All electrophysiological experiments were performed at room temperature.
(§6) First, the peak current elicited by each drug concentration was normalized to the peak current of the blank control ( (Peak currentcompound)/(Peak currentcontrol) [formula] ), and then the inhibition rate corresponding to each drug concentration was calculated ( 1−(Peak currentcompound)/(Peak currentcontrol) [formula] ). Subsequently, the mean, standard deviation (SD), and standard error (SE) were calculated for the inhibition rate corresponding to each concentration. Y = Bottom + (Top−Bottom)/(1+10((LogIC50−X)×HillSlope)) [formula]
(§7) Using the above equation, the IC50 value for each compound was calculated, and the dose-dependent effect was subjected to non-linear fitting, where IC50 is the half maximal inhibitory concentration. IC50 calculation and curve fitting were performed using the GraphPad Prism software.

Kv1.5 = Kv1.5 (Homo sapiens, UniProt P22460); experiment: Assay for inhibitory activity against Kv1.X, whole-cell patch-clamp (steady state current); details: read-out: IC50 Kv1.5, HEK293 cells stably expressing Kv1.5
Experimental: as §1, §2, §3
(§8) Recording electrodes were drawn from capillary glass tubes using a microelectrode puller. […] Then, a slow capacitance compensation was given, and the membrane capacitance and series resistance were recorded. […]
(§9) Once the whole-cell recorded Kv1.X current stabilized, drug administration was started. […] For each cell, the current detected in the compound-free extracellular solution was used as its own control group. […]
(§10) First, the current elicited by each drug concentration was normalized to the current of the blank control ( (Steady state currentcompound)/(Steady state currentcontrol) [formula] ), and then the inhibition rate corresponding to each drug concentration was calculated ( 1−(Steady state currentcompound)/(Steady state currentcontrol) [formula] ).
(§11) Using the above equation, the IC50 value for each compound was calculated, and the dose-dependent effect was subjected to non-linear fitting, where IC50 is the half maximal inhibitory concentration. […]

Kv1.1 = Kv1.1 (Homo sapiens, UniProt Q09470); experiment: as above; details: read-out: IC50 Kv1.1, HEK293 cells stably expressing Kv1.1
Experimental: as §1, §2, §3, §8, §9, §10, §11

Kv1.2 = Kv1.2 (Homo sapiens, UniProt P16389); experiment: as above; details: read-out: IC50 Kv1.2, HEK293 cells stably expressing Kv1.2
Experimental: as §1, §2, §3, §8, §9, §10, §11

hERG = hERG (Homo sapiens, UniProt Q12809); experiment: Assay for inhibitory activity against hERG, whole-cell voltage-clamp; details: read-out: IC50 hERG; CHO cells stably expressing hERG; peak tail current at -50 mV
Experimental: CHO cells stably expressing hERG were cultured in 35-mm diameter cell culture dishes at 37 °C in a 5% CO2 incubator. The cells were passaged at a ratio of 1:5 every 48 h. The medium recipe is as follows: 90% F12 (Invitrogen), 10% fetal bovine serum (Gibco), 100 µg/mL G418 (Invitrogen), and 100 µg/mL Hygromycin B (Invitrogen). On the day of the test, the cell culture medium was aspirated, and the cells were rinsed once with the extracellular solution. Then, a 0.25% Trypsin-EDTA solution (Invitrogen) was added, and the cells were digested at room temperature for 3-5 min. The digestion solution was then aspirated, and the cells were resuspended in the extracellular solution and transferred to an experimental dish for electrophysiological recording for later use.
hERG potassium channel currents were recorded at room temperature by the whole-cell voltage-clamp technique in the CHO cells stably expressing hERG potassium channels. Glass microelectrodes were formed by pulling a glass electrode blank (BF150-86-10, Sutter) using a puller. […] The clamping voltage and data recording were controlled and recorded by a computer with the pClamp software, with a sampling frequency of 10 kHz and a filtering frequency of 2 kHz. […] This voltage stimulation was applied every 5 s, and after the hERG potassium currents were determined to be stable (for 1 min), the drug application was started. […]

Kv1.4 = Kv1.4 (Homo sapiens, UniProt P22459); experiment: Assay for inhibitory activity against Kv1.X, whole-cell patch-clamp (peak current); details: read-out: IC50 Kv1.4, HEK293 cells stably expressing Kv1.4
Experimental: as §1, §2, §3, §4, §5, §6, §7

| pIC50 (Kv1.3) | Structure (SMILES) | further results |
| --- | --- | --- |
| 8.85 | Oc1ccc(Cl)c(Cl)c1[C@@H]1Cc2ncc([C@H]3CCNC3)n2C1 | – |
| 9.32 | Oc1ccc(Cl)c(Cl)c1[C@@H]1Cc2ncc([C@@H]3CCNC3)n2C1 | pIC50 (Kv1.5): < 4.00; pIC50 (Kv1.1): 4.09; pIC50 (Kv1.2): < 4.00; pIC50 (hERG): 4.51; pIC50 (Kv1.4): 5.91 |
| 7.73 | Oc1ccc(Cl)c(Cl)c1[C@H]1Cc2cnn([C@@H]3CCNC3)c2C1 | – |
| 8.42 | Oc1ccc(Cl)c(Cl)c1[C@@H]1Cc2cnn([C@@H]3CCNC3)c2C1 | – |
| 8.18 | Oc1ccc(Cl)c(Cl)c1[C@H]1Cc2cn([C@H]3CCNC3)nc2C1 | – |
| 8.13 | Oc1ccc(Cl)c(Cl)c1[C@@H]1Cc2cn([C@H]3CCNC3)nc2C1 | – |
